In US8828401B2, “Cytotoxic peptides and antibody drug conjugates thereof” (Pfizer Inc., priority 2011, dated 2014):

How the values were obtained:
[1] = test system: BT474 (breast cancer); assay: In vitro cell assay, MTS cell viability 96 hours after treatment; type: cell-based; conditions: Homo sapiens, BT-474, BT474 cells; geometric mean; cytotoxic peptides; read-out: BT474 GMEAN IC50
Protocol: (§1) Cells were treated with 3-fold serially diluted antibody-drug conjugates or free compounds (i.e., no antibody conjugated to the drug) in duplicate at 10 concentrations. Cell viability was determined by CellTiter 96® AQueous One Solution Cell Proliferation MTS Assay (Promega, Madison Wis.) 96 hours after treatment. Relative cell viability was determined as percentage of untreated control.

[2] = Mouse pharmacokinetics, single dose, total antibody and ADC by ELISA; conditions: mice; single 3 mg/kg dose; 0-last of 0-336 h
[3] = Rat toxicokinetics, single dose, total antibody and ADC by ELISA; conditions: rats
[4] = test system: MDA-MB-361-DYT2 (breast cancer); assay: In vitro cell assay, MTS cell viability 96 hours after treatment; type: cell-based; conditions: read-out: MDA-MB-361-DYT2 GMEAN IC50, MDA-MB-361-DYT2 cells; geometric mean; cytotoxic peptides
Protocol: as §1

Molecule	IC50 [1] [nM]	IC50 [4] [nM]	also measured
CC[C@H](C)[C@@H]([C@@H](CC(=O)N1CCC[C@H]1[C@H](OC)[C@@H](C)C(=O)N[C@@H](Cc1ccc(N)cc1)C(=O)OC)OC)N(C)C(=O)[C@@H](NC(=O)[C@]1(C)CCCN1C)C(C)C [#208, 1,2-dimethyl-L-prolyl-N-[(3R,4S,5S)-1-{(2S)-2-[(1R,2R)-3-{[(2S)-3-(4-aminophenyl)-1-methoxy-1-oxopropan-2-yl]amino}-1-methoxy-2-methyl-3-oxopropyl]pyrrolidin-1-yl}-3-methoxy-5-methyl-1-oxoheptan-4-yl]-N-methyl-L-valinamide]	0.418		
CC[C@H](C)[C@@H]([C@@H](CC(=O)N1CCC[C@H]1[C@H](OC)[C@@H](C)C(=O)N[C@H](C)[C@@H](O)c1ccccc1)OC)N(C)C(=O)[C@@H](NC(=O)C(C)(C)NC)C(C)C [#145, N,2-dimethylalanyl-N-{(1S,2R)-4-{(2S)-2-[(1R,2R)-3-{[(1R,2S)-2-hydroxy-1-methyl-2-phenylethyl]amino}-1-methoxy-2-methyl-3-oxopropyl]pyrrolidin-1-yl}-2-methoxy-1-[(1S)-1-methylpropyl]-4-oxobutyl}-N-methyl-L-valinamide]	0.185		
CC[C@H](C)[C@@H]([C@@H](CC(=O)N1CCC[C@H]1[C@H](OC)[C@@H](C)C(=S)NCCc1ccccc1)OC)N(C)C(=O)[C@@H](NC(=O)[C@@H](NC)C(C)C)C(C)C [#36, N-methyl-L-valyl-N-{(3R,4S,5S)-3-methoxy-1-[(2S)-2-{(1R,2R)-1-methoxy-2-methyl-3-[(2-phenylethyl)amino]-3-thioxopropyl}pyrrolidin-1-yl]-5-methyl-1-oxoheptan-4-yl}-N-methyl-L-valinamide]	0.499		
H(C)-vc-MMAE: trastuzumab cysteine conjugate comprising MMAE with vc linker			AUC (0-last) ADC [2]: 1600 µg·h/mL; AUC (0-last) Ab [2]: 3290 µg·h/mL; AUC (0-last) ADC ([3]; Dose 3, 0-last of 0-96 hours): 1080^3 μg * Hours/mL; AUC (0-last) Ab ([3]; Dose 3, 0-last of 0-96 hours): 2950^3 μg * Hours/mL; AUC (0-last) ADC ([3]; Dose 10, 0-last of 0-96 hours): 3930^3 μg * Hours/mL; AUC (0-last) Ab ([3]; Dose 10, 0-last of 0-96 hours): 10600^3 μg * Hours/mL; AUC (0-last) ADC ([3]; Dose 30, 0-last of 0-96 hours): 13400^3 μg * Hours/mL; AUC (0-last) Ab ([3]; Dose 30, 0-last of 0-96 hours): 18400^3 μg * Hours/mL
CC[C@H](C)[C@@H]([C@@H](CC(=O)N1CCC[C@H]1[C@H](OC)[C@@H](C)C(=O)N[C@@H](Cc1ccccc1)C(=O)O)OC)N(C)C(=O)[C@@H](NC(=O)C(C)(C)N)C(C)C [#69, 2-methylalanyl-N-[(3R,4S,5S)-1-{(2S)-2-[(1R,2R)-3-{[(1S)-1-carboxy-2-phenylethyl]amino}-1-methoxy-2-methyl-3-oxopropyl]pyrrolidin-1-yl}-3-methoxy-5-methyl-1-oxoheptan-4-yl]-N-methyl-L-valinamide]		41	
CC[C@H](C)[C@@H]([C@@H](CC(=O)N1CCC[C@H]1[C@H](OC)[C@@H](C)C(=O)N[C@@H](Cc1ccccc1)C(=O)OC)OC)N(C)C(=O)[C@@H](NC(=O)[C@](C)(N)CC)C(C)C [#149, D-isovalyl-N-{(1S,2R)-4-{(2S)-2-[(1R,2R)-3-{[(1S)-1-benzyl-2-methoxy-2-oxoethyl]amino}-1-methoxy-2-methyl-3-oxopropyl]pyrrolidin-1-yl}-2-methoxy-1-[(1S)-1-methylpropyl]-4-oxobutyl}-N-methyl-L-valinamide]	0.417		
CC[C@H](C)[C@@H]([C@@H](CC(=O)N1CCC[C@H]1[C@H](OC)[C@@H](C)C(=O)N[C@H](C(=O)OC)[C@H]1Cc2ccccc21)OC)N(C)C(=O)[C@@H](NC(=O)C(C)(C)N)C(C)C [#225]		7.58	
CC[C@H](C)[C@@H]([C@@H](CC(=O)N1CCC[C@H]1[C@H](OC)[C@@H](C)C(=O)N[C@@H](Cc1ccccc1)C(=O)OC)OC)N(C)C(=O)[C@@H](NC(=O)[C@@](C)(N)CC)C(C)C [#148, L-isovalyl-N-{(1S,2R)-4-{(2S)-2-[(1R,2R)-3-{[(1S)-1-benzyl-2-methoxy-2-oxoethyl]amino}-1-methoxy-2-methyl-3-oxopropyl]pyrrolidin-1-yl}-2-methoxy-1-[(1S)-1-methylpropyl]-4-oxobutyl}-N-methyl-L-valinamide]		0.502	
CC[C@H](C)[C@@H]([C@@H](CC(=O)N1CCC[C@H]1[C@H](OC)[C@@H](C)C(=O)N[C@@H](Cc1ccccc1)C(=O)OC)OC)N(C)C(=O)[C@@H](NC(=O)C(C)(C)N(C)C)C(C)C [#228]		0.078	
H(C)-MalPEG6C2-MMAD: trastuzumab cysteine conjugate comprising MMAD with MalPEG6C2 linker			AUC (0-last) ADC [2]: 2641 µg·h/mL; AUC (0-last) Ab [2]: 5415 µg·h/mL
CC[C@H](C)[C@@H]([C@@H](CC(=O)N1CCC[C@H]1[C@H](OC)[C@@H](C)C(=O)N[C@@H](Cc1ccccc1)C(=O)OC)OC)N(C)C(=O)[C@@H](NC(=O)C(C)(C)CN)C(C)C [#126, methyl N-[(2R,3R)-3-{(2S)-1-[(3R,4S,5S)-4-{[N-(3-amino-2,2-dimethylpropanoyl)-L-valyl](methyl)amino}-3-methoxy-5-methylheptanoyl]pyrrolidin-2-yl}-3-methoxy-2-methylpropanoyl]-L-phenylalaninate]	0.315		
CC[C@H](C)[C@@H]([C@@H](CC(=O)N1CCC[C@H]1[C@H](OC)[C@@H](C)C(=O)N[C@@H](Cc1ccccc1)c1nccs1)OC)N(C)C(=O)[C@@H](NC(=O)[C@@]1(C)CCCCN1)C(C)C [#190, (2R)—N-[(2S)-1-{[(3R,4S,5S)-3-methoxy-1-{(2S)-2-[(1R,2R)-1-methoxy-2-methyl-3-oxo-3-{[(1S)-2-phenyl-1-(1,3-thiazol-2-yl)ethyl]amino}propyl]pyrrolidin-1-yl}-5-methyl-1-oxoheptan-4-yl](methyl)amino}-3-methyl-1-oxobutan-2-yl]-2-methylpiperidine-2-carboxamide]		0.095	
CC[C@H](C)[C@@H]([C@@H](CC(=O)N1CCC[C@H]1[C@H](OC)[C@@H](C)C(=O)N[C@@H](Cc1ccccc1)C(=O)NCc1c[nH]nn1)OC)N(C)C(=O)[C@@H](NC(=O)C(C)(C)NC)C(C)C [#240]	11.7		
CC[C@H](C)[C@@H]([C@@H](CC(=O)N1CCC[C@H]1[C@H](OC)[C@@H](C)C(=O)N[C@@H](Cc1ccccc1)c1nccs1)OC)N(C)C(=O)[C@@H](NC(=O)[C@@]1(C)CCCN1)C(C)C [#232]		0.095	
CC[C@H](C)[C@@H]([C@@H](CC(=O)N1CCC[C@H]1[C@H](OC)[C@@H](C)C(=O)N[C@@H](Cc1ccccc1)C(=O)OC)OC)N(C)C(=O)[C@@H](NC(=O)[C@@]1(C)CCCCN1)C(C)C (single isomer, unassigned) [#159]		0.074	
CC[C@H](C)[C@@H]([C@@H](CC(=O)N1CCC[C@H]1[C@H](OC)[C@@H](C)C(=O)N[C@@H](Cc1ccccc1)c1nccs1)OC)N(C)C(=O)[C@@H](NC(=O)C(C)(C)N)C(C)C [#54, 2-methylalanyl-N-[(3R,4S,5S)-3-methoxy-1-{(2S)-2-[(1R,2R)-1-methoxy-2-methyl-3-oxo-3-{[(1S)-2-phenyl-1-(1,3-thiazol-2-yl)ethyl]amino}propyl]pyrrolidin-1-yl}-5-methyl-1-oxoheptan-4-yl]-N-methyl-L-valinamide]		0.206	
CC[C@H](C)[C@@H]([C@@H](CC(=O)N1CCC[C@H]1[C@H](OC)[C@@H](C)C(=O)N[C@@H](Cc1ccccc1)C(=O)OC)OC)N(C)C(=O)[C@@H](NC(=O)[C@@]1(C)CCCN1)C(C)C [#131, 2-methyl-D-prolyl-N-[(3R,4S,5S)-3-methoxy-1-{(2S)-2-[(1R,2R)-1-methoxy-3-{[(2S)-1-methoxy-1-oxo-3-phenylpropan-2-yl]amino}-2-methyl-3-oxopropyl]pyrrolidin-1-yl}-5-methyl-1-oxoheptan-4-yl]-N-methyl-L-valinamide]		0.081	
CC[C@H](C)[C@@H]([C@@H](CC(=O)N1CCC[C@H]1[C@H](OC)[C@@H](C)C(=O)N[C@@H](Cc1ccccc1)C(=O)O)OC)N(C)C(=O)[C@@H](NC(=O)[C@@]1(C)CCCN1C)C(C)C [#153, 1,2-dimethyl-D-prolyl-N-{(1S,2R)-4-{(2S)-2-[(1R,2R)-3-{[(1S)-1-carboxy-2-phenylethyl]amino}-1-methoxy-2-methyl-3-oxopropyl]pyrrolidin-1-yl}-2-methoxy-1-[(1S)-1-methylpropyl]-4-oxobutyl}-N-methyl-L-valinamide]	98.2		
H(C)-mc-MMAD: trastuzumab cysteine conjugate comprising MMAD with mc linker			AUC (0-last) ADC [2]: 3580 µg·h/mL; AUC (0-last) Ab [2]: 4970 µg·h/mL; AUC (0-last) ADC ([3]; Dose 10, 0-last of 0-336 h): 7650 µg·h/mL; AUC (0-last) Ab ([3]; Dose 10, 0-last of 0-336 h): 14500 µg·h/mL; AUC (0-last) ADC ([3]; Dose 30, 0-last of 0-336 h): 20700 µg·h/mL; AUC (0-last) Ab ([3]; Dose 30, 0-last of 0-336 h): 43800 µg·h/mL; AUC (0-last) ADC ([3]; Dose 100, 0-last of 0-336 h): 58000 µg·h/mL
CC[C@H](C)[C@@H]([C@@H](CC(=O)N1CCC[C@H]1[C@H](OC)[C@@H](C)C(=O)N[C@@H](Cc1ccc2c(c1)CCCN2)C(=O)OC)OC)N(C)C(=O)[C@@H](NC(=O)[C@]1(C)CCCN1C)C(C)C [#207, 1,2-dimethyl-L-prolyl-N-[(3R,4S,5S)-3-methoxy-1-{(2S)-2-[(1R,2R)-1-methoxy-3-{[(2S)-1-methoxy-1-oxo-3-(1,2,3,4-tetrahydroquinolin-6-yl)propan-2-yl]amino}-2-methyl-3-oxopropyl]pyrrolidin-1-yl}-5-methyl-1-oxoheptan-4-yl]-N-methyl-L-valinamide]		0.26	
CC[C@H](C)[C@@H]([C@@H](CC(=O)N1CCC[C@H]1[C@H](OC)[C@@H](C)C(=O)N[C@H](C(=O)OC)[C@@H]1Cc2ccccc21)OC)N(C)C(=O)[C@@H](NC(=O)C(C)(C)N)C(C)C [#227]	11		
